Columns and labels:
Type in all cases: nucleic-acid assay
dsDNA = test: Binding affinity to dsDNA (unknown origin) assessed as fold increase in fluorescence intensity at 5 uM measured after 24 hrs by fluorescence titration assay
Quadruplex DNA [1] = test: Binding affinity to c-MYC G4 quadruplex DNA (unknown origin) assessed as fold increase in fluorescence intensity at 5 uM measured after 24 hrs by fluorescence titration assay
Quadruplex DNA [2] = test: Binding affinity to c-KIT1 G4 quadruplex DNA (unknown origin) assessed as fold increase in fluorescence intensity at 5 uM measured after 24 hrs by fluorescence titration assay
Quadruplex DNA [3] = test: Binding affinity to Tel26 G4 quadruplex DNA (unknown origin) assessed as fold increase in fluorescence intensity at 5 uM measured after 24 hrs by fluorescence titration assay
Quadruplex DNA [4] = test: Binding affinity to Tel23 G4 quadruplex DNA (unknown origin) assessed as fold increase in fluorescence intensity at 5 uM measured after 24 hrs by fluorescence titration assay
Quadruplex DNA [5] = test: Binding affinity to BCL2 G4 quadruplex DNA (unknown origin) assessed as fold increase in fluorescence intensity at 5 uM measured after 24 hrs by fluorescence titration assay

fold change (FC) (dsDNA): 29 | fold change (FC) (Quadruplex DNA [1]): 109 | fold change (FC) (Quadruplex DNA [2]): 109 | fold change (FC) (Quadruplex DNA [3]): 109 | fold change (FC) (Quadruplex DNA [4]): 109 | fold change (FC) (Quadruplex DNA [5]): 109
SMILES: CN(C)CCOc1ccc2c(ccn2-c2ccc3ccc(-n4ccc5cc(OCCN(C)C)ccc54)nc3n2)c1
